## Measured affinities in a library of Ab-14 light chain variants

From the AlphaSeq antibody data of Engelhart et al. 2022 (doi:10.1038/s41597-022-01779-4), copy in the FLAb collection.

The target is the same throughout: PDVDLGDISGINAS, from the HR2 region of SARS-CoV-2 spike.

Ab-14 is the parent antibody, in scFv form: VH, then a 15-residue (Gly4Ser)3 linker, then VL. The heavy chain is unchanged in all variants.
VH: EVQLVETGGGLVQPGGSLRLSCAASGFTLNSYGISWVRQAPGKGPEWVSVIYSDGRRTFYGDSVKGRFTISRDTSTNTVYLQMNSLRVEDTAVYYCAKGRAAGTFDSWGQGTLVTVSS
VL: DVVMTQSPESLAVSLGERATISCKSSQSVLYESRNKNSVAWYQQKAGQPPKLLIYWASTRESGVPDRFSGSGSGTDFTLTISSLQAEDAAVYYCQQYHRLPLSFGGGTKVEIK

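Phage display of a naive human antibody library on the peptide gave the parent. In library AAYL50, one, two or three CDR residues were substituted; doubles and triples were drawn at random. The scFvs were displayed on barcoded MATa yeast, the peptide on MATalpha yeast. Binding brings cells together so that they mate, and sequencing counts the barcode pairs among the diploids. Read counts were normalised to the haploid input and turned into Kd by a linear fit to BCL2-family pairs of known affinity, for each replicate. Mating was done three times.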

Positions count from residue 1 of the parent VL; K36R puts R in place of K. This list gathers variants with a substitution at K36 (VL, numbered from residue 1). Kd is apparent (estimated from mating counts) and averaged on the log scale over replicates with a signal. Smaller is tighter. Where no diploid with the target was found in any replicate, the entry reads "nd": below detection, most likely a poor binder, though not proof of it. Nonspecific signal, from three strains lacking the peptide, appeared in 18% of pairings of library AAYL50, centred on 15 µM (5% of these signals below 970 nM); values are not corrected for it. In this assay the parent's reference entry averaged 4.4 nM; its copy inside this library read 48 nM.

For K36R E61D L102R, the assay gave nd (0 of 3 replicates).
For K36E V39D, the assay gave 6.1 µM (1 of 3 replicates).
For K36E, the assay gave 1.8 nM (3 of 3 replicates).
For K36A W56K T59N, the assay gave 5.6 nM (3 of 3 replicates).
For K36F A57T P101A, the assay gave 6.5 nM (3 of 3 replicates).
For E32S K36H V39W, the assay gave 9.6 µM (2 of 3 replicates).
For K36N W56Q Q95T, the assay gave 350 µM (1 of 3 replicates).
For N35Q K36F W56M, the assay gave 15 nM (3 of 3 replicates).
For K36I, the assay gave 3.7 nM (3 of 3 replicates).
For Y31V K36Y N37Y, the assay gave nd (0 of 3 replicates).
For S28A L30W K36G, the assay gave 28 nM (3 of 3 replicates).
For Y31P K36D N37V, the assay gave nd (0 of 3 replicates).
For S28D K36H Y97L, the assay gave 150 nM (3 of 3 replicates).
For K36D V39I S58V, the assay gave 7.6 nM (3 of 3 replicates).
For Q27V K36P A40L, the assay gave 88 µM (3 of 3 replicates).
For K36T, the assay gave 3.7 nM (3 of 3 replicates).
For K36N T59A R60W, the assay gave 15 µM (2 of 3 replicates).
For S26A L30H K36A, the assay gave 18 nM (3 of 3 replicates).
For V29W K36V Q95R, the assay gave nd (0 of 3 replicates).
For K24G Y31I K36M, the assay gave 47 nM (3 of 3 replicates).
For S28M N35W K36Q, the assay gave 18 nM (3 of 3 replicates).
For K36D V39N R99P, the assay gave nd (0 of 3 replicates).
For K36E S103G, the assay gave 360 nM (3 of 3 replicates).
For R34I K36P A57S, the assay gave nd (0 of 3 replicates).
For K36M E61Y S103P, the assay gave nd (0 of 3 replicates).
For S25K R34A K36P, the assay gave 12 µM (1 of 3 replicates).
For K36P S62F L100K, the assay gave nd (0 of 3 replicates).
For K36F Q95K Y97N, the assay gave 900 nM (3 of 3 replicates).
For L30F K36I W56D, the assay gave 52 nM (3 of 3 replicates).
For R34E K36V Y97C, the assay gave 7.7 µM (1 of 3 replicates).
For K36H S62F L102N, the assay gave 33 nM (3 of 3 replicates).
For K36A V39S Y97S, the assay gave 37 µM (2 of 3 replicates).
For K36Y R99T, the assay gave 12 nM (3 of 3 replicates).
For Q27C K36E H98N, the assay gave 42 nM (3 of 3 replicates).
For N35K K36Y L100Y, the assay gave 53 nM (3 of 3 replicates).
For K36W N37V R60N, the assay gave 170 µM (2 of 3 replicates).
For E32C K36D L100H, the assay gave 11 µM (2 of 3 replicates).
For K36T R99F L100E, the assay gave 3.2 µM (1 of 3 replicates).

The 2 strongest on average among those seen in every replicate, once more:

K36E: 1.8 nM (3 of 3 replicates).
K36I: 3.7 nM (3 of 3 replicates).